The target in assay [1] is human opioid receptor-like receptor (ORL-1) (Homo sapiens, UniProt P41146). In words: Nociceptin affinity at the ORL1 receptor ([35S]GTPgS binding, membranes of recombinant HEK-293 cells). The following applies: read-out: Nociceptin Affinity calc Ki; Table 1; ORL-1 membranes from recombinant HEK-293 cells; benzothiadiazole/benzothiadiazine series.
The next assay concerns the target Mu opioid receptor (Homo sapiens, UniProt P35372). In words: Affinity at the μ receptor ([35S]GTPγS binding, membranes). The following applies: read-out: Mu Receptor Affinity calc Ki, Table 3.

Protein sequences, listed by entry. Tags and fused reporters are not part of them. Lines headed by an entry give the natural chain unless they say otherwise; changes in a name come on top.
UniProt P41146: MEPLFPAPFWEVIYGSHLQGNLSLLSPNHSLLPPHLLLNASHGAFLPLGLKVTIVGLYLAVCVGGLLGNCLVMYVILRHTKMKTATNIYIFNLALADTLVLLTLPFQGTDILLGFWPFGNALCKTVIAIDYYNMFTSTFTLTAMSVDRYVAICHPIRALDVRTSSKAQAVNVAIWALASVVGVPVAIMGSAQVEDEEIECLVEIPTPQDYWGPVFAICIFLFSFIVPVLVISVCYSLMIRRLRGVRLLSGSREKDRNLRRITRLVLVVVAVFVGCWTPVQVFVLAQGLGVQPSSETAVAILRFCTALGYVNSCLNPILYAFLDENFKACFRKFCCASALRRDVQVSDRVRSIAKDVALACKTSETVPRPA
UniProt P35372: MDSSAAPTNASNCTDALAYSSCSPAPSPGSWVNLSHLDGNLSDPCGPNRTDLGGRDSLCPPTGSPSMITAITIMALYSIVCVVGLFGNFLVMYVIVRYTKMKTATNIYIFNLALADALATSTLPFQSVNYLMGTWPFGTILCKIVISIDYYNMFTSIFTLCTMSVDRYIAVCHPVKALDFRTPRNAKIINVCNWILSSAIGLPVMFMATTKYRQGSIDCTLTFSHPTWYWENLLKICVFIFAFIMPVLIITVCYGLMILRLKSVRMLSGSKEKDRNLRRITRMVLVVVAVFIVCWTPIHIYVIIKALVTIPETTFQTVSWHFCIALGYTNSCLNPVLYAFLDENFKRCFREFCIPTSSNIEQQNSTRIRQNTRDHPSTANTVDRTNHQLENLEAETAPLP

The values below come from US7563809B2, “Nociceptin analogs” (dated 2009).

On to “1-[1-(p-benzyloxybenzyl)-4-piperidinyl]-2,1,3-benzothiadiazin-2,2-dione”, for which the Ki (in general, a measure of affinity in units of concentration, obtained from inhibition or displacement) in assay [1] was 1880 nM. The same measure, in the same setting: to “1-[1-(benzyl)-4-piperidinyl]-2,1,3-benzothiadiazin-2,2-dione” belongs 3900 nM.

As to “1-[1-(4-propylcyclohexyl)-4-piperidinyl]-2,1,3-benzothiadiazin-2,2-dione”, the Ki in assay [1] was 231 nM. For “1-[1-(decahydro-2-naphthyl)-4-piperidinyl]-2,1,3-benzothiadiazin-2,2-dione”, the Ki on Mu opioid receptor was 91.7 nM; in assay [1], 28.7 nM. Take “1-[1-(cyclooctyl)-4-piperidinyl]-2,1,3-benzothiadiazin-2,2-dione”: the figures for the Ki (on Mu opioid receptor; in assay [1]) were 1380 nM and 187 nM, respectively. Regarding “1-[1-(5-methylhex-2-yl)-4-piperidinyl]-2,1,3-benzothiadiazin-2,2-dione”, the Ki in assay [1] is 40 nM. Same read-out and setting: to “1-[1-(norbornan-2-yl)-4-piperidinyl]-2,1,3-benzothiadiazin-2,2-dione” belongs 6330 nM.

As to “1-[1-(p-phenylbenzyl)-4-piperidinyl]-2,1,3-benzothiadiazin-2,2-dione”, in assay [1], the Ki is 9540 nM. For the substance “1-[1-(1,3-dihydroinden-2-yl)-4-piperidinyl]-2,1,3-benzothiadiazin-2,2-dione”, the figures for the Ki (at Mu opioid receptor; in assay [1]) were 660 nM and 46 nM, respectively.

Regarding “1-[1-(1,2,3,4-tetrahydronaphthyl)-4-piperidinyl]-2,1,3-benzothiadiazin-2,2-dione”, the Ki in assay [1] was 2610 nM. The same measure, in the same setting: to “1-[1-(10,11-Dihydro-5H-dibenzo[a,d]-cyclohepten-5-yl)-4-piperidinyl]-2,1,3-benzothiadiazin-2,2-dione” belongs 505 nM; to “3-acetamido-1-[1-[4-(2-propyl)-cyclohexyl]-4-piperidinyl]-2,1,3-benzothiadiazin-2,2-dione”, 3.9 nM; to “1-[1-(3,3-Bis(phenyl)propyl)-4-piperidinyl]-2,1,3-benzothiadiazin-2,2-dione”, 83 nM. Regarding “1-[1-[4-(2-propyl)-cyclohexyl]-4-piperidinyl]-2,1,3-benzothiadiazin-2,2-dione”, the Ki at Mu opioid receptor is 207 nM; in assay [1], 35.3 nM.

Regarding “1-[1-(naphth-2-yl-methyl)-4-piperidinyl]-2,1,3-benzothiadiazin-2,2-dione”, the Ki in assay [1] is 609 nM.
